# Measured values reported in US20250195530A1, “POLQ INHIBITORS” (ASTRAZENECA AB, priority 2022, published 2025).
# Sequences of proteins named here, by UniProt entry; tags and fusion partners are left off. Residues count along the entry.
# UniProt O75417, 1780-2590: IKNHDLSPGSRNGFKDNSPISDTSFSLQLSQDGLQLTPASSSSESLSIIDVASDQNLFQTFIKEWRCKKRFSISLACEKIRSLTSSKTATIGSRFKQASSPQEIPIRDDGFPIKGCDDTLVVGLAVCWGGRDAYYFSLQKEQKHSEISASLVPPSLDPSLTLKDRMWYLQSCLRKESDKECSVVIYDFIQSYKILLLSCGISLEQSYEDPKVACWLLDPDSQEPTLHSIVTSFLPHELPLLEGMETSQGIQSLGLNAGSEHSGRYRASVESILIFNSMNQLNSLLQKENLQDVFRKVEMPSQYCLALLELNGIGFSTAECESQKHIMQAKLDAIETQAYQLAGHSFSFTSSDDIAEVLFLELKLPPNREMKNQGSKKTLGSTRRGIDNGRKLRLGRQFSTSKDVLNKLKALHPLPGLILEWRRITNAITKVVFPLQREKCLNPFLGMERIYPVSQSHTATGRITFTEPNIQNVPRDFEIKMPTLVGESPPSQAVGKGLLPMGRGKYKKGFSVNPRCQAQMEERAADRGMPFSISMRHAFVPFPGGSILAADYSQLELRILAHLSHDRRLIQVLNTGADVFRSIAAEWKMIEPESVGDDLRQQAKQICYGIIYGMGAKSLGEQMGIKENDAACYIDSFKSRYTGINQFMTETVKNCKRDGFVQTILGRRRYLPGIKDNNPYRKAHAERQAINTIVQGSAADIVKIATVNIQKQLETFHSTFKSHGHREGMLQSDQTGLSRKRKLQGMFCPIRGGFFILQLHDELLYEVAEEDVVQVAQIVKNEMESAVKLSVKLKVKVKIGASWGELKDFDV
# Target: isolated polymerase domain (I1780-V2590) of DNA polymerase theta (Polθ) (Homo sapiens (Human), UniProt O75417)
row,SMILES,IC50
1,"CC(=O)NCCCOc1ccc(-c2nc3cc(OC(C)C)ccc3n2Cc2ccccc2)c(Cl)c1 [Example A3, N-(3-(4-(1-benzyl-5-isopropoxy-1H-benzo[d]imidazol-2-yl)-3-chlorophenoxy)propyl)acetamide]",2 nM
2,"CC1(Oc2cccc3c2nc(-c2ccc(OCCN4CCNCC4)cc2Cl)n3Cc2ccccn2)CCC1 [Example P1, 2-(2-chloro-4-(2-(piperazin-1-yl)ethoxy)phenyl)-4-(1-methylcyclobutoxy)-1-(pyridin-2-ylmethyl)-1H-benzo[d]imidazole]",3.16 nM
3,"CC(=O)N1CCN(CCCOc2ccc(-c3nc4c(OC5(C)CC5)ncnc4n3Cc3ccccc3)c(Cl)c2)CC1 [Example D22, 1-(4-(3-(4-(9-benzyl-6-(1-methylcyclopropoxy)-9H-purin-8-yl)-3-chlorophenoxy)propyl)piperazin-1-yl)ethan-1-one]",3.98 nM
4,"CN(C)[C@@H]1CCN(c2ccc(-c3nc4c(OC5(C)CC5)ncnc4n3Cc3ccccc3)c(Cl)c2)C1 [Example C4, (R)-1-(4-(9-benzyl-6-(1-methylcyclopropoxy)-9H-purin-8-yl)-3-chlorophenyl)-N,N-dimethylpyrrolidin-3-amine]",2.51 nM
5,"Cc1ccnc(Cn2c(-c3ccc(OC[C@@H](C)O)cc3Cl)nc3c(OC4(C)CC4)ncnc32)c1 [Example 37, (R)-1-(3-Chloro-4-(6-(1-methylcyclopropoxy)-9-((4-methylpyridin-2-yl)methyl)-9H-purin-8-yl)phenoxy)propan-2-ol]",6.31 nM
6,"Cc1ccc(F)c(Cn2c(-c3ccc(OCCN4CCN(C)CC4)cc3Cl)nc3cc(OC(C)C)ccc32)c1Cl [Example A6, 2-(2-chloro-4-(2-(4-methylpiperazin-1-yl)ethoxy)phenyl)-1-(2-chloro-6-fluoro-3-methylbenzyl)-5-isopropoxy-1H-benzo[d]imidazole]",10 nM
7,"CC1(Oc2ncnc3c2nc(-c2ccc(OC[C@H]4CCN4)cc2Cl)n3Cc2ccccc2)CC1 [Example D16, (R)-8-(4-(azetidin-2-ylmethoxy)-2-chlorophenyl)-9-benzyl-6-(1-methylcyclopropoxy)-9H-purine]",2.51 nM
8,"CC1(Oc2ncnc3c2nc(-c2ccc(O[C@H]4CCNC4)cc2Cl)n3Cc2ccccc2)CC1 [Example D17, (S)-9-benzyl-8-(2-chloro-4-(pyrrolidin-3-yloxy)phenyl)-6-(1-methylcyclopropoxy)-9H-purine]",5.01 nM
9,"CC(C)Oc1ccc2c(c1)nc(-c1ccc(OC3CCCN(C)CC3)cc1Cl)n2Cc1ccccc1 (single isomer, unassigned) [Example A11, 1-benzyl-2-(2-chloro-4-((1-methylazepan-4-yl)oxy)phenyl)-5-isopropoxy-1H-benzo[d]imidazole]",2 nM
10,"CC1(Oc2ncnc3c2nc(-c2ccc(OCCCC(=O)O)cc2Cl)n3Cc2cccc(Cl)c2)CC1 [Example 44, 4-(3-Chloro-4-(9-(3-chlorobenzyl)-6-(1-methylcyclopropoxy)-9H-purin-8-yl)phenoxy)butanoic acid]",6.31 nM
11,"CC1(Oc2cccc3c2nc(-c2ccc(OCCN4CCNCC4)cc2Cl)n3Cc2ccccc2)CCC1 [Example P2, 1-benzyl-2-(2-chloro-4-(2-(piperazin-1-yl)ethoxy)phenyl)-4-(1-methylcyclobutoxy)-1H-benzo[d]imidazole]",6.31 nM
12,"Cc1ccnc(Cn2c(-c3ccc(OC4CNC(=O)NC4)cc3Cl)nc3c(OC4(C)CC4)ncnc32)c1 [Example 42, 5-(3-Chloro-4-(6-(1-methylcyclopropoxy)-9-((4-methylpyridin-2-yl)methyl)-9H-purin-8-yl)phenoxy)tetrahydropyrimidin-2(1H)-one]",10 nM
13,"CC1(Oc2ccnc3c2nc(-c2ccc(OCCN4CCNCC4)cc2Cl)n3Cc2ccccc2)CCC1 [Example P4, 3-benzyl-2-(2-chloro-4-(2-(piperazin-1-yl)ethoxy)phenyl)-7-(1-methylcyclobutoxy)-3H-imidazo[4,5-b]pyridine]",6.31 nM
14,"CC(C)Oc1ccc2c(c1)nc(-c1ccc(O)cc1Cl)n2Cc1ccccc1 [Example A1, 4-(1-Benzyl-5-isopropoxy-1H-benzo[d]imidazol-2-yl)-3-chlorophenol]",5.01 nM
15,"CC1(Oc2ncnc3c2nc(-c2ccc(O[C@@H]4CCCNC4)cc2Cl)n3Cc2ccccc2)CC1 [Example D32, (R)-9-benzyl-8-(2-chloro-4-(piperidin-3-yloxy)phenyl)-6-(1-methylcyclopropoxy)-9H-purine]",2.51 nM
16,"Cc1cc(OCCN2CCN(C)CC2)ncc1-c1nc2cc(OC(C)C)ccc2n1Cc1ccc(Cl)cc1 [Example A5, 1-(4-chlorobenzyl)-5-isopropoxy-2-(4-methyl-6-(2-(4-methylpiperazin-1-yl)ethoxy)pyridin-3-yl)-1H-benzo[d]imidazole]",3.98 nM
17,"CC1(Oc2ncnc3c2nc(-c2ccc(OCC(N)=O)cc2Cl)n3Cc2ccccc2)CC1 [Example D27, 2-(4-(9-benzyl-6-(1-methylcyclopropoxy)-9H-purin-8-yl)-3-chlorophenoxy)acetamide]",7.94 nM

# Further lines, results first:
row,IC50,SMILES
1,2 nM,"CC(=O)N1CCN(CCOc2cc(C)c(-c3nc4c(OC5(C)CC5)ncnc4n3Cc3ccccc3)cn2)CC1 [Example G4, 1-(4-(2-((5-(9-benzyl-6-(1-methylcyclopropoxy)-9H-purin-8-yl)-4-methylpyridin-2-yl)oxy)ethyl)piperazin-1-yl)ethan-1-one]"
2,12.6 nM,"Cc1cccnc1Cn1c(-c2ccc(OCCN3CCNCC3)cc2Cl)nc2c(OC3(C)CC3)ncnc21 [Example L9, 8-(2-chloro-4-(2-(piperazin-1-yl)ethoxy)phenyl)-6-(1-methylcyclopropoxy)-9-((3-methylpyridin-2-yl)methyl)-9H-purine]"
3,6.31 nM,"CC1(Oc2ncnc3c2nc(-c2ccc(OC[C@H]4C[C@@H](C(=O)O)C4)cc2Cl)n3Cc2cccc(Cl)c2)CC1 [Example T409, (1s,3s)-3-((3-chloro-4-(9-(3-chlorobenzyl)-6-(1-methylcyclopropoxy)-9H-purin-8-yl)phenoxy)methyl)cyclobutane-1-carboxylic acid]"
4,2.51 nM,"Cc1cc(OCCN2CCNCC2)ncc1-c1nc2c(OC3(C)CC3)ncnc2n1Cc1ccccc1 [Example G6, 9-benzyl-8-(4-methyl-6-(2-(piperazin-1-yl)ethoxy)pyridin-3-yl)-6-(1-methylcyclopropoxy)-9H-purine]"
5,2.51 nM,"CCC1(Oc2ncnc3c2nc(-c2ccc(OCCN4CCNCC4)cc2Cl)n3Cc2ccccc2)CC1 [Example Q2, 9-benzyl-8-(2-chloro-4-(2-(piperazin-1-yl)ethoxy)phenyl)-6-(1-ethylcyclopropoxy)-9H-purine]"
6,7.94 nM,"CC1(Oc2ncnc3c2nc(-c2ccc(OCCN4CCNCC4)cc2Cl)n3Cc2csc(Cl)n2)CC1 [Example L7, 2-chloro-4-((8-(2-chloro-4-(2-(piperazin-1-yl)ethoxy)phenyl)-6-(1-methylcyclopropoxy)-9H-purin-9-yl)methyl)thiazole]"
7,15.8 nM,"CC1(Oc2ncnc3c2nc(-c2ccc(CN4CCCC4)cc2Cl)n3Cc2ccccc2)CC1 [Example N5, 9-benzyl-8-(2-chloro-4-(pyrrolidin-1-ylmethyl)phenyl)-6-(1-methylcyclopropoxy)-9H-purine]"
8,63.1 nM,"Cc1scnc1Cn1c(-c2ccc(OCCN3CCNCC3)cc2Cl)nc2c(OC3(C)CC3)ncnc21 [Example K12, 4-((8-(2-chloro-4-(2-(piperazin-1-yl)ethoxy)phenyl)-6-(1-methylcyclopropoxy)-9H-purin-9-yl)methyl)-5-methylthiazole]"
9,2 nM,"C[C@@H]1CNCCN1CCOc1ccc(-c2nc3c(OC4(C)CC4)ncnc3n2Cc2ccccc2)c(Cl)c1 [Example R11, (R)-9-benzyl-8-(2-chloro-4-(2-(2-methylpiperazin-1-yl)ethoxy)phenyl)-6-(1-methylcyclopropoxy)-9H-purine]"
10,2.51 nM,"Cc1cc(N2CCC(N(C)C)CC2)ncc1-c1nc2c(OC3(C)CC3)ncnc2n1Cc1ccccc1 [Example F3, 1-(5-(9-benzyl-6-(1-methylcyclopropoxy)-9H-purin-8-yl)-4-methylpyridin-2-yl)-N,N-dimethylpiperidin-4-amine]"
11,6.31 nM,"COc1c(OCCN2CCNCC2)ccc(-c2nc3c(OC4(C)CC4)ncnc3n2Cc2ccccc2)c1Cl [Example J3, 9-benzyl-8-(2-chloro-3-methoxy-4-(2-(piperazin-1-yl)ethoxy)phenyl)-6-(1-methylcyclopropoxy)-9H-purine]"
12,2 nM,"CC1(Oc2ncnc3c2nc(-c2ccc(OCCN4CCNCC4)cc2Cl)n3Cc2cc(C#N)ccn2)CC1 [Example L4, 2-((8-(2-chloro-4-(2-(piperazin-1-yl)ethoxy)phenyl)-6-(1-methylcyclopropoxy)-9H-purin-9-yl)methyl)isonicotinonitrile]"
13,2 nM,"C[C@@H]1C(=O)NCCN1CCOc1ccc(-c2nc3c(OC4(C)CC4)ncnc3n2Cc2ccccc2)c(Cl)c1 [Example H22, (R)-4-(2-(4-(9-benzyl-6-(1-methylcyclopropoxy)-9H-purin-8-yl)-3-chlorophenoxy)ethyl)-3-methylpiperazin-2-one]"
14,3.98 nM,"COc1ccc(F)cc1Cn1c(-c2cccc(O[C@H]3C[C@@H](C(=O)O)C3)c2Cl)nc2c(OC3(C)CC3)ncnc21 [Example U74, (1s,3s)-3-(2-chloro-3-(9-(5-fluoro-2-methoxybenzyl)-6-(1-methylcyclopropoxy)-9H-purin-8-yl)phenoxy)cyclobutane-1-carboxylic acid]"
15,3.16 nM,Cc1ccnc(Cn2c(-c3ccc(OCCN4CCn5cnnc5C4)cc3Cl)nc3c(OC4(C)CC4)ncnc32)c1 [Example T560]
16,3.98 nM,"COc1ccc(C)cc1Cn1c(-c2cccc(O[C@H]3CC[C@H](C(=O)O)CC3)c2Cl)nc2c(OC3(C)CC3)ncnc21 [Example U91, (1r,4r)-4-(2-chloro-3-(9-(2-methoxy-5-methylbenzyl)-6-(1-methylcyclopropoxy)-9H-purin-8-yl)phenoxy)cyclohexane-1-carboxylic acid]"
17,5.01 nM,"N#CC1(Oc2ncnc3c2nc(-c2ccc(OCCN4CCNCC4)cc2Cl)n3Cc2cccc(Cl)c2)CC1 [Example Q5, 1-((8-(2-chloro-4-(2-(piperazin-1-yl)ethoxy)phenyl)-9-(3-chlorobenzyl)-9H-purin-6-yl)oxy)cyclopropane-1-carbonitrile]"
